# The entries are a selection whose mix differs from that of the whole data set. Calls of active or inactive are those of the source. How the calls were made is not given here.
# Experiment: chitosan synthesis blockers in C. neoformans – flow cytometry, Cibacron Brilliant Red staining (AID 1347148);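 further: compound exposure lasted three days at 37 degrees C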
# Conditions: Cryptococcus neoformans chitosan, at 135.4 µM, active compounds read low
smiles,measurement,value
CN(C(=O)Cc1ccc(Cl)c(Cl)c1)[C@H]1CCCC[C@@H]1N1CCCC1,fold fluorescence,inactive: 11.8
